PubChem BioAssay AID1851 (National Center for Advancing Translational Sciences (NCATS), 2009)
Shown are results outside the selection of hits, which stands elsewhere. Records with an inconclusive call do not appear. The source made the active and inactive calls. Calls follow the shape of the dose curve; as a rule, active = well fitted curve in the direction sought with a large enough effect; inconclusive = small, poorly fitted or top-dose-only effect, or effect the other way; inactive = no such curve, though single readings can be large or run the other way.

The chains behind the UniProt entries cited, without tags or fusion partners.
UniProt P10635, whole entry, looked up: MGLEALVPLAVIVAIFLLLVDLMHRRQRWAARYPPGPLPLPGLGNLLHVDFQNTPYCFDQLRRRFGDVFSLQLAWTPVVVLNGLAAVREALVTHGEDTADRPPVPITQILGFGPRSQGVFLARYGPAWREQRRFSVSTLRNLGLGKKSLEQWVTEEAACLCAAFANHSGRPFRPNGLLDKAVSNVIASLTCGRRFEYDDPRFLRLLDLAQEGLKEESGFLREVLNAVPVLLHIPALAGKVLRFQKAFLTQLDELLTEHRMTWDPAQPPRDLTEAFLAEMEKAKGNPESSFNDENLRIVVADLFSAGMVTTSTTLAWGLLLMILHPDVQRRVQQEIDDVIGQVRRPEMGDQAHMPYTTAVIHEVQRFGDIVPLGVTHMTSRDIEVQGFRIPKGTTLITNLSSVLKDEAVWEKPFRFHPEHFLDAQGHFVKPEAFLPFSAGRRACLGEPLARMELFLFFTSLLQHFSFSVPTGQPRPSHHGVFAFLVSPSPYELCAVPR

Molecular target: Cytochrome P450 2D6 (Homo sapiens) (UniProt P10635)
Assay: Cytochrome panel assay with activity outcomes
Conditions: recombinant CYP, pro-luciferin dealkylation, luminescence, p450-cyp2d6; series mostly up to 57.1 µM

AC50, active:
C#C[C@]1(O)CC[C@@H]2[C@H]3CCC4=Cc5oncc5C[C@]4(C)[C@@H]3CC[C@@]21C 10 µM

AC50, inactive:
Cn1c(=O)c(-c2ccccc2)nc2cnc(Nc3ccccc3)nc21
Cc1nc2cnc(Nc3ccccc3)nc2n(CCC#N)c1=O
COCCn1c(=O)c(-c2ccccc2)nc2cncnc21
O=C(c1csnn1)N1CCC[C@@]2(CCN(c3ncccn3)C2)C1
Cn1c(=O)cnc2cnc(Oc3ccccc3)nc21
O=C(c1cnccn1)N1CCC2(CCCN(c3ccc(-c4ccccc4)cc3)C2)CC1
Cc1nc2cnc(Oc3ccccc3)nc2n(CCC#N)c1=O
Cn1cccc1C(=O)N1CCC2(CCCN(c3ccc(-c4ccccc4)cc3)C2)CC1
COCCn1c(=O)c(CCc2ccccc2)nc2cncnc21
COCCn1c(=O)c(-c2ccccc2)nc2cnc(Oc3ccc(OC)cc3)nc21
O=C(Nc1cccc(F)c1)N1CC2(CCN(C(=O)c3csnn3)CC2)C1
N#CCCn1c(=O)c(-c2ccc(Cl)cc2)nc2cnc(OCc3ccccc3)nc21
CC(C)NC(=O)N1CC[C@@]2(CCCN(C(=O)c3cccc(F)c3)C2)C1
O=C(Nc1cccc(F)c1)N1CC[C@@]2(CCCN(C(=O)c3ccco3)C2)C1
CC(C)NC(=O)N1CCC2(CC1)CCN(C(=O)c1csnn1)CC2
COc1cccc(Nc2ncc3ncc(=O)n(CCc4ccccc4)c3n2)c1
O=c1cnc2cnc(Nc3ccccc3)nc2n1Cc1ccc(F)cc1
COc1ccc(-n2c(=O)c(-c3cccs3)nc3cnc(Nc4ccccc4)nc32)cc1
O=C(c1ccco1)N1CCC2(CC1)CCN(c1cccc(-c3ccccc3)c1)CC2
Cc1nc2cnc(OCc3ccccc3)nc2n(Cc2ccc(F)cc2)c1=O
Cn1c(=O)c(-c2cccs2)nc2cnc(OCc3ccccc3)nc21
O=C(Nc1cccc(F)c1)N1CCCC2(CCN(C(=O)c3ccncc3)CC2)C1
Cc1nc2cnc(Nc3ccccc3)nc2n(C2CC2)c1=O
COc1cccc(Nc2ncc3nc(C)c(=O)n(C)c3n2)c1
COCCn1c(=O)c(CCc2ccccc2)nc2cnc(Oc3ccc(OC)cc3)nc21
COCCn1c(=O)c(-c2ccc(F)cc2)nc2cnc(Nc3cccc(OC)c3)nc21
CCNc1ncc2ncc(=O)n(Cc3cccc(OC)c3)c2n1
